Experimental data as given in patent US9204630B2, “Capsule formulation” (Syngenta Participations AG, priority 2005, dated 2015).

Test: Screen of EC formulations for substances that photoprotect emamectin benzoate
Type: physicochemical
Parameters: key: #1 represents no improvement; #3 represents those photoprotectants that conferred a significant improvement in photostability
Conditions: performance of the photostabiliser relative to the non-photostabilised EC; 2% w/w emamectin benzoate EC, photoprotectant to insecticide 1:1; deposits on glass irradiated in Suntest, HPLC-MS
Protocol: The photoprotectant to be screened was either dissolved or dispersed in a simple Solvesso 200 based EC formulation containing 2% w/w emamectin benzoate, 10% w/w Soprophor BSU and 3% w/w phenyl sulfonate calx. The weight ratio of photoprotectant to insecticide was 1:1.
The ECs were diluted in water to the typical field application rate of emamectin benzoate, 10 g ai/ha at a spray volume of 200 l/ha. 2 μl droplets were applied to clean glass microscope slides and allowed to dry prior to being irradiated in an Atlas XLS+ Suntest artificial sunlight simulator, which employs a filtered xenon light source providing a spectral energy distribution similar to natural outdoor exposure. After irradiation, deposits were removed from the glass slides by a solvent wash and quantified by high performance liquid chromatography (HPLC) with mass-spectrometric (MS) detection.

Question: Which “Screen Result” value does the source give for “1-[[3-methyl-4-[(3-methylphenol)azo]phenyl]azo]-2-naphthalenol [Example 1L]” here?
Answer: 3
